From the NIST ThermoML archive (doi:10.1021/acs.jced.7b00542)

What was measured:
[1] = Crystal; DTA
[2] = Molar enthalpy of transition or fusion; conditions: Crystal; DSC

Normal melting temperature [1]: 164.61 ± 1.1 °C
Molar enthalpy of transition or fusion [2]: 11.2 ± 0.287 kcal/mol
SMILES: CS(=O)(=O)c1ccc([C@@H](O)[C@@H](CO)NC(=O)C(Cl)Cl)cc1 [thiamphenicol]

± gives the expanded uncertainty stated by the source.
